For this experiment, the target named is T1, His8-tagged human TBK1, D135N (TBK1–His8) (human, UniProt Q9UHD2 1-729, D135N).
T1 sequence (looked up): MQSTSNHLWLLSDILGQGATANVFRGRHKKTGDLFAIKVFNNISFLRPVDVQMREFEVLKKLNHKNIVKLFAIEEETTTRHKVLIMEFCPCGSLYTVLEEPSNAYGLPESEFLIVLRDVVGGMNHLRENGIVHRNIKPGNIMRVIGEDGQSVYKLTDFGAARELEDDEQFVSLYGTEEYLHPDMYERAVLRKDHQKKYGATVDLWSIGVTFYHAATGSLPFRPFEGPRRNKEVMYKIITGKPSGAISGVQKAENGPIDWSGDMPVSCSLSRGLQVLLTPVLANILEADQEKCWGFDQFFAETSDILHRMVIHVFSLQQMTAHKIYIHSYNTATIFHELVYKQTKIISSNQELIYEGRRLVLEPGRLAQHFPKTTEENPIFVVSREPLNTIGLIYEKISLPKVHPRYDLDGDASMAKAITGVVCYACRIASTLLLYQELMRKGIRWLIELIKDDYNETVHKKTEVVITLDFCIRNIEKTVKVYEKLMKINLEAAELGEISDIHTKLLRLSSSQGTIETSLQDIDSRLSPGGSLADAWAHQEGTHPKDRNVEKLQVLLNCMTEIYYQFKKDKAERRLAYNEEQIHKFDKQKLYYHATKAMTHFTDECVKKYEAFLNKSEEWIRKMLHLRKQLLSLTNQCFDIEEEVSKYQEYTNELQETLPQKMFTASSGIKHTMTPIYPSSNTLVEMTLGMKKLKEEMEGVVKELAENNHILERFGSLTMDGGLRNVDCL
Put plainly: pull-down.

Results on 1 molecule are retold here after PMC6862768 (Nature, 2019).

B1: Flag-tagged human STING (STING–Flag), purified, captured on anti-Flag M2 resin (natural protein, UniProt Q86WV6 1-379, looked up)
chain: MPHSSLHPSIPCPRGHGAQKAALVLLSACLVTLWGLGEPPEHTLRYLVLHLASLQLGLLLNGVCSLAEELRHIHSRYRGSYWRTVRACLGCPLRRGALLLLSIYFYYSLPNAVGPPFTWMLALLGLSQALNILLGLKGLAPAEISAVCEKGNFNVAHGLAWSYYIGYLRLILPELQARIRTYNQHYNNLLRGAVSQRLYILLPLDCGVPDNLSMADPNIRFLDKLPQQTGDHAGIKDRVYSNSIYELLENGQRAGTCVLEYATPLQTLFAMSQYSQAGFSREDRLEQAKLFCRTLEDILADAPESQNNCRLIAYQEPADDSSFSLSQEVLRHLRQEEKEEVTVGSLKTSAVPSTSTMSQEPELLISGMEKPLPLRTDFS
On to B1, for which the binding result is “binds”.
